The data set addresses human β2-adrenergic receptor (hβAR) (Homo sapiens, UniProt P07550). As for the experimental part: After 36 hours, cells were harvested and spheroplasts were prepared as described. […] Briefly, the spheroplasts were resuspended in 50 mM Tris-HCl pH 7.4, 5 mM EDTA and were lysed by vortex mixing with glass beads for three one-min periods at 4° C.
FIG. 2 illustrates hβAR ligand binding to membranes from pYβAR2-transformed yeast cells. […] Specific binding was defined as the amount of total binding (circles) minus nonspecific binding measured in the presence of 10 μM (−) alprenolol (squares).

The substance (−) norepinephrine came in with a Ki of 6 ± 1.38 µM.

As usually defined, the Ki is a measure of affinity in units of concentration, obtained from inhibition or displacement. A high value points to a looser hold on the target.

For the origin of these results see patent US7413876B2 (priority 1990, dated 2008).
